Data published in patent publication US11407721B2, “CIS-morpholinone and other compounds as MDM2 inhibitors for the treatment of cancer” (AMGEN INC., priority 2013, dated 2022).
Values belong to the compound of their own block, whether it stands above or below them.

Chains of the proteins cited; added tags and fusions are not shown. Residues count along the entry.
UniProt Q00987, 1-188 limits assumed: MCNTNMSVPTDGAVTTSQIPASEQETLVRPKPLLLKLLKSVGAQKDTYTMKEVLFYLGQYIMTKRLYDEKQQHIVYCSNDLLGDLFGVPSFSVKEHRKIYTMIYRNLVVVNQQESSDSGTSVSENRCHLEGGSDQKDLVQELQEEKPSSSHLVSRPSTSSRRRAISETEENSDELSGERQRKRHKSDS

Target: interaction between HDM2 and p53 (GST-hMDM2 (1-188) / biotinylated-p53 (1-83)) (Homo sapiens (Human), UniProt Q00987)
Assay: HTRF2 Assay (improved HTRF assay)
Assay type: binding
Settings: read-out: HTRF2 IC50; 0.2 nM GST-hMDM2 (1-188), 0.5 nM biotinylated-p53 (1-83), 100 mM KF

Compound: CC(C)=CC[C@H]1O[C@H](c2ccc(Br)cc2)[C@H](c2ccc(Br)cc2)N(C)C1=O (relative stereo)
IC50: 25 µM

Compound: CCCNC(=O)[C@@H](CCC)N1C(=O)CO[C@@H](c2ccc(Cl)cc2)[C@H]1c1ccc(Cl)cc1 (relative stereo)
IC50: 5 µM

Compound: CCC[C@@H](C(=O)N1CCN(C)CC1)N1C(=O)[C@@H](Cc2ccc(F)cc2)O[C@H](c2ccc(Cl)cc2)[C@@H]1c1ccc(Cl)cc1 (relative stereo)
IC50: 0.922 µM

Compound: CCC[C@H](C(=O)N(C)C)N1C(=O)CO[C@@H](c2ccc(Cl)cc2)[C@H]1c1ccc(Cl)cc1 (relative stereo)
IC50: 4.16 µM

Compound: CCC[C@H](C(=O)NCCN1CCOCC1)N1C(=O)CO[C@@H](c2ccc(Cl)cc2)[C@H]1c1ccc(Cl)cc1 (relative stereo)
IC50: 4.53 µM

Compound: CCC[C@H](C(=O)NCCO)N1C(=O)CO[C@@H](c2ccc(Cl)cc2)[C@H]1c1ccc(Cl)cc1 (relative stereo)
IC50: 3.44 µM

Compound: CCC[C@H](C(=O)O)N1C(=O)[C@H](CC(N)=O)O[C@@H](c2ccc(Cl)cc2)[C@H]1c1ccc(Cl)cc1 (relative stereo)
IC50: 3.85 µM

Compound: CCC[C@H](C(N)=O)N1C(=O)CO[C@@H](c2ccc(Cl)c(Cl)c2)[C@H]1c1ccc(Cl)cc1 (relative stereo)
IC50: 9.16 µM

Compound: CCC[C@H](CN1CCOCC1)N1C(=O)CO[C@@H](c2ccc(Cl)cc2)[C@H]1c1ccc(Cl)cc1 (relative stereo)
IC50: 4 µM

Compound: CCC[C@H](CNC(=O)CO)N1C(=O)CO[C@@H](c2ccc(Cl)cc2)[C@H]1c1ccc(Cl)cc1 (relative stereo)
IC50: 3.71 µM

Compound: NC(=O)[C@@H](c1ccc(Cl)cc1)N1C(=O)CO[C@@H](c2ccc(Cl)cc2)[C@H]1c1ccc(Cl)cc1 (relative stereo)
IC50: 7.44 µM

Compound: O=C(O)[C@@H](c1ccc(Cl)cc1)N1C(=O)[C@H](Cc2ccc(F)cc2)O[C@@H](c2ccc(Cl)cc2)[C@H]1c1ccc(Cl)cc1 (relative stereo)
IC50: 1.41 µM

Compound: O=C(O)[C@@H](c1ccccc1)N1C(=O)[C@H](Cc2ccc(F)cc2)O[C@@H](c2ccc(Cl)cc2)[C@H]1c1ccc(Cl)cc1 (relative stereo)
IC50: 1.52 µM

Continued by falling IC50, values first:

IC50: 7.67 µM
Compound: CCC[C@H](C(=O)O)N1C(=O)CO[C@@H](c2ccc(Cl)cc2C)[C@H]1c1ccc(Cl)cc1 (relative stereo)

IC50: 5.12 µM
Compound: CCC[C@H](CNS(C)(=O)=O)N1C(=O)CO[C@@H](c2ccc(Cl)cc2)[C@H]1c1ccc(Cl)cc1 (relative stereo)

IC50: 4.65 µM
Compound: CCC[C@@H](CN)N1C(=O)[C@@H](Cc2ccc(F)cc2)O[C@H](c2ccc(Cl)cc2)[C@@H]1c1ccc(Cl)cc1 (relative stereo)

IC50: 4.21 µM
Compound: O=C(O)C[C@H]1O[C@H](c2cccc(Cl)c2)[C@H](c2ccc(Cl)cc2)N(S(=O)(=O)C2CC2)C1=O (relative stereo)

IC50: 2.87 µM
Compound: CCC[C@H](C(=O)NC)N1C(=O)CO[C@@H](c2ccc(Cl)cc2)[C@H]1c1ccc(Cl)cc1 (relative stereo)

IC50: 2.38 µM
Compound: CCC[C@H](C(N)=O)N1C(=O)[C@H](Cc2ccc(F)cc2)O[C@@H](c2ccc(Cl)c(Cl)c2)[C@H]1c1ccc(Cl)cc1 (relative stereo)

IC50: 2 µM
Compound: CCC[C@H](C(N)=O)N1C(=O)[C@H](Cc2ccc(F)cc2)O[C@@H](c2ccc(Cl)c(F)c2)[C@H]1c1ccc(Cl)cc1 (relative stereo)

IC50: 1.47 µM
Compound: CCC[C@H](C(=O)O)N1C(=O)[C@H](Cc2ccc(F)cc2)O[C@@H](c2ccccc2)[C@H]1c1ccc(Cl)cc1 (relative stereo)

IC50: 1.05 µM
Compound: CCC[C@@H](C(=O)N1CCOCC1)N1C(=O)[C@@H](Cc2ccc(F)cc2)O[C@H](c2ccc(Cl)cc2)[C@@H]1c1ccc(Cl)cc1 (relative stereo)

IC50: 0.465 µM
Compound: CCC[C@H](C(=O)O)N1C(=O)[C@H](Cc2ccc(C#N)cc2)O[C@@H](c2ccc(Cl)cc2)[C@H]1c1ccc(Cl)cc1 (relative stereo)

IC50: 0.374 µM
Compound: CCC[C@H](C(=O)O)N1C(=O)[C@H](Cc2ccc(S(C)(=O)=O)cc2)O[C@@H](c2ccc(Cl)cc2)[C@H]1c1ccc(Cl)cc1 (relative stereo)
